US12005066B2, “Cobinamide compounds as a cyanide, sulfide, or methane-thiol antidote” (dated 2024)

Test: Mouse lethal cyanide inhalation model
Settings: observed for at least two weeks

With di-(5-amino-tetrazole)-cobinamide the condition of survivors was “all appeared normal”.
